Consider 48 compounds from PubChem BioAssay AID1347056 (Sanford-Burnham Center for Chemical Genomics, 2019).

Only a part is listed here, and it is no random draw. Activity calls are given as the source filed them.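 The calls were made as follows: active = compounds whose plate-normalised and pattern-corrected inhibition of the luciferase reporter signal at the single screening dose is 50% or more; inactive = the rest.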

This assay is described as follows: TROY pathway blockers in reporter cells – Q293 LMP1-TROYcd cells, NF-kB luciferase, uHTS, primary screen (AID 1347056). The note with it: 4 h, at 10 µM, stronger effect = higher value.
Regarding `O=C(NCC1(N2CCCCC2)CCCCC1)c1ccc(Cl)s1`, the inhibition is inactive: -27.9%. Then `COc1ccc(Cl)cc1C(=O)NCC1(N2CCOCC2)CCCCC1`, with inactive: -5.82%.

With `CCOC(=O)N1CCC(Nc2ccc(OC)cc2)CC1`, the inhibition was inactive: 0.43%.

In the case of `CCCCn1nnnc1C(c1ccc(OC)cc1)N1CCC(n2c(=O)[nH]c3ccccc32)CC1` (stereo not drawn), the inhibition is inactive: 19%. On to `O=c1[nH]c2ccccc2n1C1CCN(C(c2ccccc2OC(F)(F)F)c2nnnn2C2CCCCC2)CC1` (stereo not drawn), for which the inhibition is inactive: 16.6%. On to `O=C(NCC1(N2CCCCC2)CCCCC1)c1ccc(Cl)nc1`, for which the inhibition was inactive: -0.6%. Turning to `Cc1cc(C)cc(N(C(=O)c2ccccc2)C2CCN(C(=O)OC(C)(C)C)CC2)c1`, the inhibition is inactive: 6.33%. The result for `O=C(NCC1(N2CCOCC2)CCCCC1)c1cc2ccccc2o1` reads inactive: 11.9%; that for `O=C(NCC1(N2CCCCC2)CCCCC1)c1ccc(F)cc1`, inactive: 1.71%. Regarding `CCCCOc1ccc(C(=O)NCC2(N3CCOCC3)CCCCC2)cc1`, the inhibition was inactive: -39.3%.

As for `O=P1(N(CCCl)CCCl)SCCCS1`, the inhibition is inactive: 18.3%.

Take `CCCCn1nnnc1C(c1cc2ccccc2o1)N1CCC(n2c(=O)[nH]c3ccccc32)CC1` (stereo not drawn): the inhibition was inactive: 29.2%. The result for `CCOC(=O)N1CCC(Nc2ccc(F)cc2)CC1` reads inactive: 11.5%; that for `COc1ccc(NC2CCN(CCc3ccccc3)CC2)c(OC)c1`, inactive: -17.5%. Turning to `CC(C)(C)n1nnnc1C(c1ccccc1)N1CCC(n2c(=O)[nH]c3ccccc32)CC1` (stereo not drawn), the inhibition is inactive: -3.82%. On to `O=C1CCN(Cc2ccccc2)CC1`, for which the inhibition was inactive: 1.67%.

Regarding `CCOc1ccc(C)cc1CN(CCCl)CCCl`, the inhibition is inactive: 0.99%. Regarding `COc1cc(C(=O)NCC2(N(C)C)CCCCC2)ccc1OC(F)F`, the inhibition was inactive: 8.12%.

On to `CCOC(=O)N1CCC(Nc2cccc(C)c2)CC1`, for which the inhibition is inactive: 13.6%. Regarding `O=c1[nH]c2ccccc2n1C1CCN(C(c2cccc3ccccc23)c2nnnn2C2CCCC2)CC1` (stereo not drawn), the inhibition is inactive: -7%. Turning to `O=c1[nH]c2ccccc2n1C1CCN(C(c2ccccc2)c2nnnn2C2CCCCC2)CC1` (stereo not drawn), the inhibition is inactive: 19.2%. `CCN1CCC(Nc2ccc(Cl)cc2)CC1`: the inhibition is inactive: 2.05%. For `N#CC1(Nc2ccccc2)CCN(CCc2ccccc2)CC1`, the inhibition is inactive: -14.5%.

For `O=c1[nH]c2ccccc2n1C1CCN(C(c2ccccc2OC(F)(F)F)c2nnnn2C2CCCC2)CC1` (stereo not drawn), the inhibition was inactive: -10.4%. `CSc1ccc(C(=O)NCC2(N3CCOCC3)CCCCC2)cc1`: the inhibition is inactive: -2.52%. As for `O=C(NCC1(N2CCCCC2)CCCCC1)c1cccc([N+](=O)[O-])c1`, the inhibition was inactive: 14.5%.

Regarding `CC(C)(C)n1nnnc1C(c1ccccc1OC(F)(F)F)N1CCC(n2c(=O)[nH]c3ccccc32)CC1` (stereo not drawn), the inhibition was inactive: 10.5%. Consider `O=C(NCC1(N2CCCCC2)CCCCC1)c1ccc(OC(F)F)cc1`, for which the inhibition is inactive: 20.6%. As for `O=C(NCC1(N2CCOCC2)CCCCC1)c1cc(=O)[nH]c2ccccc12`, the inhibition is inactive: -2.15%. With `COc1cc(C(=O)NCC2(N3CCCCC3)CCCCC2)ccc1OC(F)F`, the inhibition is inactive: -8.52%. For the compound `CCCCn1nnnc1C(c1cccc2ccccc12)N1CCC(n2c(=O)[nH]c3ccccc32)CC1` (stereo not drawn), the inhibition is inactive: 18.1%. `COc1ccc(NC2CCN(C(=O)OC(C)(C)C)CC2)cc1`: the inhibition is inactive: 1.26%. As for `CC(C)c1ccc(C(=O)NCC2(N3CCOCC3)CCCCC2)cc1`, the inhibition was inactive: -6.68%.

As to `CN1CCN(CCOC(=O)C(O)(c2ccccc2)c2ccccc2)CC1`, the inhibition was inactive: 7.8%. In the case of `O=C(NCC1(N2CCCCC2)CCCCC1)c1cccc(C(F)(F)F)c1`, the inhibition was inactive: 11.2%. On to `COc1cc(OC)c(C(=O)NCC2(N(C)C)CCCCC2)cc1OC`, for which the inhibition was inactive: 8.79%. As to `O=C(NCC1(N2CCOCC2)CCCCC1)c1cc(F)c(F)cc1Cl`, the inhibition is inactive: -2.53%. `CCC(c1nnnn1C(C)(C)C)N1CCC(n2c(=O)[nH]c3ccccc32)CC1` (stereo not drawn): the inhibition is inactive: -8.58%.

Take `CCCCn1nnnc1C(c1ccnc2ccccc12)N1CCC(n2c(=O)[nH]c3ccccc32)CC1` (stereo not drawn): the inhibition is inactive: 17.3%. As for `CC(C)c1ccc(NC2CCN(C(=O)OC(C)(C)C)CC2)cc1`, the inhibition is inactive: 5.92%.

On to `CCCCn1nnnc1C(c1ccccc1OC(F)(F)F)N1CCC(n2c(=O)[nH]c3ccccc32)CC1` (stereo not drawn), for which the inhibition was inactive: 26.1%. For `COc1ccc(CN(CCCl)CCCl)cc1Cl`, the inhibition was inactive: -17.6%. For `CN(C)c1cccc(C(=O)NCC2(N3CCCCC3)CCCCC2)c1`, the inhibition was inactive: -6.51%.

Take `COc1ccc(C(c2nnnn2C2CCCC2)N2CCC(n3c(=O)[nH]c4ccccc43)CC2)cc1` (stereo not drawn): the inhibition was inactive: -1.91%. For `Cc1ccc(C(=O)NCC2(N(C)C)CCCCC2)o1`, the inhibition is inactive: -5.72%. As to `CCCOc1ccc(C(=O)NCC2(N(C)C)CCCCC2)cc1OC`, the inhibition is inactive: -3.32%.

Consider `O=C(NCC1(N2CCCCC2)CCCCC1)c1cncc(Br)c1`, for which the inhibition is inactive: 11.6%. For `CN1CCC(Nc2cccc(F)c2)CC1`, the inhibition was inactive: -0.78%.

One may read the inhibition as the relative decrease from the control value, in per cent.
